{
  "source": "published antibiotic growth screens (doi:10.1038/s41589-023-01349-8)",
  "note": "The other results are listed elsewhere or left out.",
  "data": [
    {"test_system": "A. baumannii ATCC 17978", "assay": "relative growth (fraction of control); higher = less inhibition", "settings": "50 µM", "values": [
      {"smiles": "C=C(C)[C@@H]1CC[C@]2(C)CC[C@]3(C)[C@@H](CCC4[C@@]5(C)CC[C@H](OC(C)=O)C(C)(C)C5CC[C@]43C)C12", "note": "(some centres not stated)", "relative growth": 0.909},
      {"smiles": "NC(C(=O)O)C(O)C(=O)O", "note": "(stereo not drawn) [d,l-threo-3-HYDROXYASPARTIC ACID]", "relative growth": 1.08},
      {"smiles": "O=C(Cc1ccncc1)NCC[C@@H]1CC[C@@H](NC(=O)C2CCOCC2)[C@H](CO)O1", "relative growth": 1.05},
      {"smiles": "Cn1c(=O)n2n(c1=O)[C@H](C1CC1)C=C1CN3[C@@H]([C@H](Cc4ccccc4)OC(=O)[C@@H]3Cc3ccc(N=[N+]=[N-])cc3)[C@@H]12", "relative growth": 1.08},
      {"smiles": "C[C@H]1CN([C@@H](C)CO)S(=O)(=O)c2ccc(C#CC3(O)CCCC3)cc2O[C@H]1CN(C)C(=O)Cc1cccnc1", "relative growth": 1.07},
      {"smiles": "O=C(N/N=C/[C@H](O)[C@@H](O)[C@H](O)CO)c1ccccn1", "relative growth": 1.02},
      {"smiles": "COc1cccc(NC(=O)N2C[C@H](O)COC[C@H]3O[C@@H](CC(=O)NCCCN4CCOCC4)CC[C@@H]32)c1", "relative growth": 1.11},
      {"smiles": "COCC#Cc1ccc2c(c1)O[C@@H](CN(C)S(=O)(=O)c1ccc(F)cc1)[C@@H](C)CN([C@@H](C)CO)S2(=O)=O", "relative growth": 0.937},
      {"smiles": "Cc1ncc(CSSCc2cnc(C)c(O)c2CO)c(CO)c1O", "relative growth": 1.11},
      {"smiles": "O=c1nc[nH]c2c1ncn2[C@H]1CC[C@@H](CO)O1", "relative growth": 1.15},
      {"smiles": "CN(C)CC(=O)N[C@@H]1CC[C@@H](CCn2cc(CN(C)C)nn2)O[C@H]1CO", "relative growth": 1.08},
      {"smiles": "CC(C)(C)OC(=O)CC[C@]1(C(=O)NC[C@@H](O)CO)COC(c2ccc(OCCCO)cc2)=N1", "relative growth": 0.874},
      {"smiles": "CC(=O)Oc1cccc2c1C(=O)c1c(OC(C)=O)cc(C(=O)O)cc1C2=O", "relative growth": 0.93},
      {"smiles": "CC(=O)NCCCC[C@@H]1NC(=O)[C@H]2C[C@@H](C(=O)NCCCC[N+](C)(C)C)[C@@H](c3ccc(O)cc3)N2C1=O", "relative growth": 1.04},
      {"smiles": "CN(C)c1ccc([C@@H](CN)N2CCc3ccccc3C2)cc1", "relative growth": 0.981},
      {"smiles": "CCCNC(=O)N[C@H]1C=C[C@@H](CC(=O)N2CCN(C)CC2)O[C@H]1CO", "relative growth": 0.942},
      {"smiles": "COc1ccc([Si](C)(C)[C@@H]2[C@@H](CCO)O[C@]3(C(=O)N(Cc4ccc(N5C(=O)c6cccc7cccc5c67)cc4)c4ccccc43)[C@H]2C)cc1", "relative growth": 1.41},
      {"smiles": "O=C(C[C@H]1CC[C@H]2[C@@H](COC[C@@H](O)CN2C(=O)c2ccccc2)O1)N1CCOCC1", "relative growth": 1.05},
      {"smiles": "O=C(C[C@@H]1C=C[C@@H](NS(=O)(=O)c2ccccc2)[C@@H](CO)O1)NCc1ccncn1", "relative growth": 1.15},
      {"smiles": "NCCS(=O)(=O)O", "relative growth": 1.02},
      {"smiles": "C[C@@H]1CN([C@@H](C)CO)S(=O)(=O)c2ccc(C#CC3(O)CCCC3)cc2O[C@H]1CN(C)C(=O)c1ccncc1", "relative growth": 0.851},
      {"smiles": "CCn1cc(C(=O)O)c(=O)c2cnc(N3CCNCC3)nc21", "relative growth": 0.953},
      {"smiles": "COc1nc(C)nc(Cl)c1NC1=NCCN1", "relative growth": 1.17},
      {"smiles": "CCn1ncc(Br)c1CN", "relative growth": 0.892},
      {"smiles": "C[C@H](CO)N1C[C@H](C)[C@@H](CN(C)S(=O)(=O)c2cccc(F)c2)Oc2ncc(C#CC3(O)CCCC3)cc2C1=O", "relative growth": 1},
      {"smiles": "COCC(=O)N1C[C@@H](C)[C@H](OC)CN(C)C(=O)c2ccc(NC(=O)Nc3cccc(F)c3)cc2OC[C@@H]1C", "relative growth": 1.09},
      {"smiles": "O=C(/C=C/c1ccccc1)C1CC1", "relative growth": 0.754},
      {"smiles": "CO[C@@H](CN(C)C(=O)c1ccc2c(c1)OCO2)[C@H](C)CN([C@@H](C)CO)S(=O)(=O)c1ccc(F)cc1", "relative growth": 1.12},
      {"smiles": "O=C(C[C@@H]1CC[C@H]2[C@@H](COC[C@@H](O)CN2Cc2ccccc2F)O1)N[C@@H]1CCN(Cc2ccccc2)C1", "relative growth": 1.04},
      {"smiles": "O=C(C[C@H]1C[C@H]2c3cc(NC(=O)c4ccc5c(c4)OCO5)ccc3O[C@H]2[C@H](CO)O1)NCc1cccnc1", "relative growth": 1.11},
      {"smiles": "O=C(C[C@H]1C=C[C@@H](NC(=O)Cc2ccccn2)[C@@H](CO)O1)NCCc1ccncc1", "relative growth": 0.861},
      {"smiles": "COc1ccc(-c2cc(=O)c3c(O)cc(O)cc3o2)cc1", "relative growth": 1.22},
      {"smiles": "O=C(C[C@H]1CC[C@H]2[C@@H](COC[C@@H](O)CN2S(=O)(=O)c2ccc(F)cc2)O1)N[C@H]1CCN(Cc2ccccc2)C1", "relative growth": 1.14},
      {"smiles": "Cc1ccc(S(=O)(=O)NC(=O)NN2CC3CCCC3C2)cc1", "note": "(configuration not stated)", "relative growth": 0.969},
      {"smiles": "CO[C@H]1O[C@H](COC(=O)NCCCCCC(=O)NO)[C@@H](OC(=O)c2ccccc2)[C@H](OC(=O)Nc2ccccc2-c2ccccc2)[C@@H]1OC(=O)Nc1ccccc1-c1ccccc1", "relative growth": 1},
      {"smiles": "O=c1c(O)cccc2cc(O)c(O)c(O)c12", "relative growth": 1.01},
      {"smiles": "O=C1NC(=O)[C@H](Cc2ccccc2)N1", "relative growth": 1.19},
      {"smiles": "O=C(C[C@@H]1C=C[C@H](NC(=O)CN2CCOCC2)[C@@H](CO)O1)NC1CCC1", "relative growth": 0.972},
      {"smiles": "Cc1ccc2ncc(-c3ccc4cc(C)ccc4n3)cc2c1", "relative growth": 1.21},
      {"smiles": "O=c1c(O)c(-c2cc(O)c(O)c(O)c2)oc2cc(O)cc(O)c12", "relative growth": 0.967},
      {"smiles": "O=C(C[C@H]1C[C@@H]2c3cc(NS(=O)(=O)c4ccccc4)ccc3O[C@@H]2[C@@H](CO)O1)NC1CCCCC1", "relative growth": 1.06},
      {"smiles": "Cn1cc(S(=O)(=O)N2CCN(c3ccccc3F)CC2)c(=O)n(C)c1=O", "relative growth": 1.1},
      {"smiles": "O=C(C[C@@H]1CC[C@H](NC(=O)CN2CCOCC2)[C@@H](CO)O1)NCCc1ccncc1", "relative growth": 1},
      {"smiles": "C[C@@H]1CN([C@H](C)CO)C(=O)c2cc(C#CC3(O)CCCC3)cnc2O[C@@H]1CN(C)C(=O)Cc1ccccc1", "relative growth": 1},
      {"smiles": "C=CCOC(=O)[C@H]1[C@@H]2C(=O)O[C@@H](c3ccccc3)[C@@H](c3ccccc3)N2[C@@H](c2ccc(OCCOC(=O)[C@@H]3C[C@@H]4C(=O)N[C@@H](CC(C)C)C(=O)N4[C@@H]3c3cccc(OCCO)c3)cc2)[C@]12C(=O)Nc1ccc(I)cc12", "relative growth": 1.17},
      {"smiles": "COc1ccc([Si](C)(C)[C@H]2[C@H](CC(=O)N3Cc4ccccc4C[C@H]3CO)O[C@@]3(C(=O)N(Cc4ccc(N5CCOC5=O)cc4)c4ccccc43)[C@@H]2C)cc1", "relative growth": 1.03},
      {"smiles": "COc1c2ccccc2nc2occc12", "relative growth": 1.01},
      {"smiles": "C#C[C@]1(O)CCC2C3CCC4=CCCCC4C3CC[C@@]21C", "note": "(some centres not stated)", "relative growth": 1.22},
      {"smiles": "O=C1N(CCS(=O)(=O)c2ccccc2)Cc2ccccc2C[C@@]12COC(c1ccc(OCCCO)cc1)=N2", "relative growth": 0.88},
      {"smiles": "COc1ccc(-c2oc3c(CC=C(C)C)c(O[C@@H]4O[C@H](CO)[C@@H](O)[C@H](O)[C@H]4O)cc(O)c3c(=O)c2O[C@@H]2O[C@@H](C)[C@H](O)[C@@H](O)[C@H]2O)cc1", "relative growth": 1.06},
      {"smiles": "CCn1cc(C(=O)O)c(=O)c2ccc(C)nc21", "relative growth": 0.869},
      {"smiles": "O=C(O)CNC(=O)c1[nH]nc2ccccc12", "relative growth": 1.18},
      {"smiles": "O=C(O)CNc1ncccc1O", "relative growth": 1.16},
      {"smiles": "O=C(C[C@@H]1C=C[C@H](NC(=O)c2cccc(F)c2)[C@@H](CO)O1)NCCN1CCCC1", "relative growth": 0.996},
      {"smiles": "COc1ccc(S(=O)(=O)N2C[C@H](O)COC[C@@H]3O[C@H](CC(=O)NCCN4CCCCC4)CC[C@H]32)cc1", "relative growth": 0.838},
      {"smiles": "COc1ccc2cc(CCC(C)=O)ccc2c1", "relative growth": 0.946},
      {"smiles": "COCCOC(=O)N1C(=O)[C@@]2(c3cc(C#CCNC(N)=O)ccc31)[C@H](c1ccc(O)cc1)N1[C@H](c3ccccc3)[C@H](c3ccccc3)OC(=O)[C@H]1[C@@H]2C(=O)N1CCc2cc(OC)c(OC)cc2C1", "relative growth": 0.974},
      {"smiles": "CC(CCC(=O)O)[C@H]1CCC2C3CC[C@@H]4C[C@H](O)CC[C@]4(C)C3C[C@H](O)[C@@]21C", "note": "(some centres not stated)", "relative growth": 1.04},
      {"smiles": "O=C(CCCN1CC=C(n2c(=O)[nH]c3ccccc32)CC1)c1ccc(F)cc1", "relative growth": 0.946},
      {"smiles": "O=C(C[C@H]1CC[C@H]2[C@@H](COC[C@H](O)CN2C(=O)c2ccncc2)O1)NCc1ccc(-c2ccccc2)cc1", "relative growth": 0.997},
      {"smiles": "COc1ccccc1CNC(=O)C[C@@H]1C[C@H]2c3cc(NS(=O)(=O)c4ccc(F)cc4)ccc3O[C@H]2[C@H](CO)O1", "relative growth": 0.919},
      {"smiles": "COc1ccccc1S(=O)(=O)N[C@@H]1C=C[C@@H](CC(=O)N2CCN(C)CC2)O[C@H]1CO", "relative growth": 1.02},
      {"smiles": "CC[C@@H](CO)NC(=O)c1ccc(N)cc1", "relative growth": 1.01},
      {"smiles": "Cc1c2oc3c(C)ccc(C(=O)OC(C)C4NC(=O)C(C(C)C)N(C)C(=O)CN(C)C(=O)C5CCCN5C(=O)C(C(C)C)NC4=O)c3nc-2c(C(=O)OC(C)C2NC(=O)C(C(C)C)N(C)C(=O)CN(C)C(=O)C3CCCN3C(=O)C(C(C)C)NC2=O)c(N)c1=O", "note": "(configuration not stated)", "relative growth": 0.172},
      {"smiles": "COc1ccc(NC(=O)N(C)C[C@@H]2Oc3cc(C#CCN(C)C)ccc3S(=O)(=O)N([C@@H](C)CO)C[C@@H]2C)cc1", "relative growth": 0.978},
      {"smiles": "O=C(C[C@H]1C=C[C@@H](NC(=O)CN2CCOCC2)[C@@H](CO)O1)NC1CCC1", "relative growth": 1.03},
      {"smiles": "CCC(=O)O", "relative growth": 1.07},
      {"smiles": "CCOC(=O)c1nonc1N", "relative growth": 0.978},
      {"smiles": "COCCOC(=O)N1C(=O)[C@@]2(c3cc(C#CC4(O)CCCCCC4)ccc31)[C@H](c1ccc(OCCO)cc1)N1[C@H](c3ccccc3)[C@H](c3ccccc3)OC(=O)[C@H]1[C@@H]2C(=O)N1CCCCCCC1", "relative growth": 1.05},
      {"smiles": "Oc1c(I)cc(I)c2cccnc12", "relative growth": 1.14},
      {"smiles": "COC(=O)[C@@H]1CC2=CC(=O)CC[C@]2(C)[C@@]23OC2C[C@@]2(C)C(CCC24CCC(=O)O4)[C@H]13", "note": "(some centres not stated)", "relative growth": 0.946},
      {"smiles": "C[N+]1(C)C2CC[C@H]1C[C@@H](OC(=O)C(O)c1ccccc1)C2.[Br-]", "note": "(some centres not stated)", "relative growth": 0.951},
      {"smiles": "CC(C)(C)OC(=O)NC(=NCCCn1cc(-c2cccc(/C=C/C(=O)NO)c2)nn1)NC(=O)OC(C)(C)C", "relative growth": 1.33},
      {"smiles": "CC(=O)Nc1ccc(S(=O)(=O)CCO)cc1", "relative growth": 1.07},
      {"smiles": "C[C@@H]1CN(C(=N)N)C[C@H](C)O1", "relative growth": 0.87},
      {"smiles": "COc1ccc(C#Cc2ccc3c(c2)[C@]2(C(=O)N3)[C@H](c3ccc(O)cc3)N3[C@H](c4ccccc4)[C@H](c4ccccc4)OC(=O)[C@H]3[C@@H]2C(=O)N2CCCCCCC2)cc1", "relative growth": 0.973},
      {"smiles": "C[C@@H]1CN([C@H](C)CO)S(=O)(=O)c2ccc(C#Cc3cccc(F)c3)cc2O[C@H]1CN(C)S(=O)(=O)c1ccccc1F", "relative growth": 1.12}
    ]}
  ]
}
